Measured values from patent US10123969B2, “Osmotic enhancement of drug/therapeutic delivery to the brain following infusion or injection into the cerebrospinal fluid” (Wisconsin Alumni Research Foundation, priority 2015, dated 2018).

Assay: Estimated mannitol concentration in CSF after intracisternal infusion
Settings: assuming instant mixing

Compound: OC[C@@H](O)[C@@H](O)[C@H](O)[C@H](O)CO [mannitol]
- concentration of mannitol in the CSF (80 microliters of 0.27 M mannitol in 250 microliters of CSF): approximately 0.086 M
- concentration of mannitol in the CSF (80 microliters of 0.75 M mannitol into approximately 250 microliters of CSF): approximately 0.24 M
